pIC50: −log10 of the molar value.
Key:
Human KIF18A (1-376aa) = Human KIF18A (1-376aa) (Homo sapiens, UniProt Q8NI77); assay: KIF18A enzyme activity assay (ADP-Glo Kinase Assay); conditions: read-out: KIF18A inhibitory activity IC50, numeric value, ATP 70 µM, microtubule 50 µg/mL
Description: Based on the ADP-Glo™ Kinase Assay, the ADP amount generated in the reaction was determined to reflect the enzyme activity of KIF18A.
Human KIF18A (1-376aa) protease used in the experiments, expressed by Shanghai Panchao Biotechnology Co., Ltd., was stored at -80 °C (no more than 5 freeze-thaw cycles).
The assay kit (ADP-Glo™ Kinase Assay) was purchased from Promega (Cat. No. V9101) and stored at -30 °C. The kit determines the enzyme activity by measuring ADP generated in enzyme reaction. The KIF18A enzyme and ATP generate ADP. The remaining ATP in this reaction is consumed by the ADP-Glo reagent, while the ADP generated by the KIF18A enzyme reaction is converted back to ATP by the assay reagent. The ATP then reacts with luciferin in the presence of Ultra-Glo™ luciferase, producing luminescence. The luminescent signal is positively correlated with the enzyme activity of KIF18A.
Compounds were each subjected to 3-fold serial dilution starting from 10 µM to obtain 10 concentration points. The compounds and pure DMSO (control) were pipetted into wells of a 384-well plate using an Echo instrument, and the total volume of compound and DMSO was 100 nL; sample concentrations of gradient dilution were obtained by the instrument based on different ratios. Preparation of a KIF18A enzyme reaction buffer: […], 10 mM MgCl2, 0.01% Pluronic F-68, 1 µM Taxol, and 50 µg/mL Microtubule. KIF18A and the enzyme reaction buffer were mixed, and then the mixed solution was added to the 384-well plate and incubated at room temperature for 15 min. ATP (Km 70 µM) was then added to the mixed solution, and the mixed solution was incubated at room temperature for 15 min. 10 µL of ADP-Glo™ Reagent was well mixed with 10 µL of the mixed solution, and the mixture was incubated at room temperature for 40 min. Finally, 20 µL of ADP-Glo™ Detection Reagent was added, and the mixture was incubated at room temperature for 30 min. The chemiluminescent signal in each well was measured using an Envision plate reader (PerkinElmer, emission wavelength: 400-700 nm). In the experiment, 1 column of wells with no compound and no enzyme (chemiluminescence value was taken as [RLU]background) and 1 column of wells with enzyme but no compound (chemiluminescence value was taken as [RLU]enzyme) were provided. The chemiluminescence value of the compound adding group was taken as [RLU]cpd. The inhibition rate of the compound on proliferation was calculated according to the following equation: inhibition rate (%) = ([RLU]enzyme - [RLU]cpd)/([RLU]enzyme - [RLU]background) × 100%, and the inhibitory activity IC50 value of the compound on the enzyme activity was calculated using a four-parameter Logistic Model method. In the following equation, x represents the logarithmic form of the concentration of compound, and f (x) represents an effect value (inhibition rate of enzyme activity at the concentration): F(x) = (A + ((B - A)/(1 + ((C/x)^D)))). A. B, C, and D are four parameters. IC50 values were further calculated as the concentration of compound required for 50% inhibition of enzyme activity in the best-fit curve using Xlfit, and the KIF18A inhibitory activity of the compounds of the present disclosure is shown in Table 1. Table 1. KIF 18A inhibitory activity of compounds of the present disclosure

Chains of the proteins cited; added tags and fusions are not shown. Residues count along the entry.
UniProt Q8NI77, 1-376 limits assumed: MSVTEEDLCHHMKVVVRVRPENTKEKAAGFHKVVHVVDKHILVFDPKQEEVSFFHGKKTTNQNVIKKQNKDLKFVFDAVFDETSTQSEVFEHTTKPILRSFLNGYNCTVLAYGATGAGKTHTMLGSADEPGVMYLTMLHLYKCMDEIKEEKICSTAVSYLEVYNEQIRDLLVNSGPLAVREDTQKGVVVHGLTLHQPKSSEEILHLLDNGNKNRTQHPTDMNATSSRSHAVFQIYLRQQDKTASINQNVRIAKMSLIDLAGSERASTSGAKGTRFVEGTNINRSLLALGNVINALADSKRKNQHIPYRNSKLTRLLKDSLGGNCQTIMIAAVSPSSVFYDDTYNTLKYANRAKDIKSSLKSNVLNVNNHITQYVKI

OVCAR3 cells = assay: Inhibition of proliferation of OVCAR-3 cells (Cell-Titer Glo); conditions: read-out: OVCAR3 proliferation inhibition IC50, numeric value, 3 days incubation
From the text: Cells and materials: The human ovarian cancer cell line OVCAR3 was purchased from ATCC (Cat. No. HTB-161™), RPMI 1640 medium (Gibco#A1049101), penicillin-streptomycin (Gibco#15140122), and 0.25% Trypsin-EDTA (Gibco#25200056) were purchased from Gibco (U.S.), bovine insulin (Yeasen#40107ES60) was purchased from Yeasen, 384-well plates (Corning#CLS3765) were purchased from Corning (U.S.), Cell-Titer Glo reagent (Promega#G7568) was purchased from Promega (U.S.), and Echo was purchased from PerkinElmer.
Cell culture: OVCAR3 cells were cultured in RPMI 1640 complete medium (RPMI 1640 medium containing 20% fetal bovine serum, 10 µg/mL bovine insulin, and 1% penicillin-streptomycin) in an incubator (37 °C, 5% CO2), and the cells were able to be used in experiments when in the logarithmic growth phase.
Cell proliferation activity test: The Cell-Titer Glo reagent was used to test the compound for inhibition of proliferation of the OVCAR3 cell strain. The compound formulated with DMSO and pure DMSO (control) were each added to a 384-well plate using an Echo instrument; the compound was subjected to 3-fold serial dilution starting from 30 µM to obtain 11 concentration points, and the volume of the compound or DMSO added was 100 nL.
OVCAR3 cells were digested and resuspended in RPMI 1640 complete medium, and the suspension was added to the 384-well plate (1000 cells/50 µL/well) to be well mixed with the compound. The mixture was incubated in an incubator (37 °C, 5% CO2) for 3 days. The Cell-Titer Glo reagent was added at 25 µL/well, and the resulting mixture was well mixed by shaking and then incubated for 10 min. The Cell-Titer Glo readings were measured with a Multimode Plate Reader (brand: PerkinElmer; model: SIC-PV-018).
A negative control group (Bottom) was set, and the negative control group was medium wells with 0.2% DMSO added and was defined as 100% proliferation inhibition; the positive control group (Top) was OVCAR3 cell wells with 0.2% DMSO added.
The percent proliferation inhibition (%Inhibition) was calculated, and the curves were fit using the four-parameter equation, Y = Bottom + (Top - Bottom)/(1 + (IC50/X)^HillSlope), to obtain the proliferation inhibition IC50 of the compound. Percent inhibition: %Inhibition = (1 - (Signal - Bottom)/(Top - Bottom)) × 100%. • Signal: Cell-Titer Glo reading of wells with compound added; • Bottom: Cell-Titer Glo reading of negative control wells; • Top: Cell-Titer Glo reading of positive control wells.

Row | SMILES | pIC50 (Human KIF18A (1-376aa)) | pIC50 (OVCAR3 cells)
1 | O=C(Nc1cccc2c3c(nn12)CCC(F)(F)CC3)c1ccc(NS(=O)(=O)CCO)cc1N1CCC2(CC1)CC2 | 7.84 | 7.70
2 | O=C(Nc1cccc2c1nc1n2CC2CCC12)c1ccc(NS(=O)(=O)CCO)cc1N1CCC2(CC1)CC2 (stereo not shown) | 7.28 | 7.14
3 | CCS(=O)(=O)Nc1ccc(C(=O)Nc2cccc3c4c(nn23)CCC(F)(F)CC4)c(N2CCC3(CC2)CC3)c1 | 6.74 | –
4 | COc1ccc(NC(=O)c2ccc(NS(=O)(=O)CCO)cc2N2CCC3(CC2)CC3)c2nc3n(c12)CC1C3C1(F)F (stereo not shown) | 7.67 | 8.18
5 | Cc1cc(NC(=O)c2ccc(NS(=O)(=O)CCO)cc2N2CCC3(CC2)CC3)n2nc3c(c2n1)CCCCC3 | 7.29 | –
6 | O=C(Nc1ccnc2c3c(nn12)CCCCC3)c1ccc(NS(=O)(=O)CCO)cc1N1CCC2(CC1)CC2 | 7.37 | –
7 | O=C(Nc1ccc(Cl)c2c3c(nn12)CCCCC3)c1ccc(NS(=O)(=O)CCO)cc1N1CCC2(CC1)CC2 | 7.35 | 7.15
8 | O=C(Nc1ccc(C(F)(F)F)c2c3c(nn12)CCCCC3)c1ccc(NS(=O)(=O)CCO)cc1N1CCC2(CC1)CC2 | 6.90 | –
9 | N#Cc1ccc(NC(=O)c2ccc(NS(=O)(=O)CCO)cc2N2CCC3(CC2)CC3)n2nc3c(c12)CCC(F)(F)CC3 | 6.90 | –
10 | O=C(Nc1cccc2c1c(F)c1n2CCCCC1)c1ccc(NS(=O)(=O)CCO)cc1N1CCC2(CC1)CC2 | 6.96 | –
11 | CCC1Cc2nc3c(NC(=O)c4ccc(NS(=O)(=O)CCO)cc4N4CCC5(CC4)CC5)cccc3n2C1 (stereo not shown) | 7.66 | –
12 | N#Cc1ccc(NC(=O)c2ccc(NS(=O)(=O)CCO)cc2N2CCC3(CC2)CC3)n2nc3c(c12)CCCCC3 | 7.09 | –
13 | O=C(Nc1ccnc2c3c(nn12)CCC(F)(F)CC3)c1ccc(NS(=O)(=O)CCO)cc1N1CCC2(CC1)CC2 | 7.47 | –
14 | O=C(Nc1cccc2c3c(nn12)CCCC(F)(F)C3)c1ccc(NS(=O)(=O)CCO)cc1N1CCC2(CC1)CC2 | 7.72 | 7.06
15 | Cc1cc(NC(=O)c2ccc(NS(=O)(=O)CCO)cc2N2CCC3(CC2)CC3)n2nc3c(c2n1)CCC(F)(F)CC3 | 7.31 | –
16 | CS(=O)(=O)Nc1ccc(C(=O)Nc2cccc3c4c(nn23)CCC(F)(F)CC4)c(N2CCC3(CC2)CC3)c1 | 6.91 | –
17 | C=CS(=O)(=O)Nc1ccc(C(=O)Nc2cccc3c4c(nn23)CCC(F)(F)CC4)c(N2CCC3(CC2)CC3)c1 | 6.54 | –
18 | O=C(Nc1cccc2c3c(nn12)CCC(O)CC3)c1ccc(NS(=O)(=O)CCO)cc1N1CCC2(CC1)CC2 (stereo not shown) | 7.13 | –
19 | CC12c3nc4c(NC(=O)c5ccc(NS(=O)(=O)CCO)cc5N5CCC6(CC5)CC6)cccc4n3CC1C2(F)F (stereo not shown) | 7.67 | 7.54
20 | O=C(Nc1cc(O)cc2c3c(nn12)CCCCC3)c1ccc(NS(=O)(=O)CCO)cc1N1CCC2(CC1)CC2 | 7.07 | –
21 | O=C(Nc1ccc(O)c2c3c(nn12)CCCCC3)c1ccc(NS(=O)(=O)CCO)cc1N1CCC2(CC1)CC2 | 7.53 | –
22 | CCC1CCn2c1nc1c(NC(=O)c3ccc(NS(=O)(=O)CCO)cc3N3CCC4(CC3)CC4)cccc12 (stereo not shown) | 7.59 | –
